# Antibody variant affinities, Ab-95 light chain, assay 2

Reference: Engelhart et al. 2022, doi:10.1038/s41597-022-01779-4. File: FLAb, binding data.

Antigen: PDVDLGDISGINAS, a 14-residue peptide of the SARS-CoV-2 spike HR2 region.

Parent: Ab-95, a human scFv built as VH, the linker GGGGSGGGGSGGGGS, VL. Only the CDRs of the light chain vary.
VH: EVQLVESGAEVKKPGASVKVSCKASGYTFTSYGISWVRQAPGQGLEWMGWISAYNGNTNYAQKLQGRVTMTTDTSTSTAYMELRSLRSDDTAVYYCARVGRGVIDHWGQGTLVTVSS
VL: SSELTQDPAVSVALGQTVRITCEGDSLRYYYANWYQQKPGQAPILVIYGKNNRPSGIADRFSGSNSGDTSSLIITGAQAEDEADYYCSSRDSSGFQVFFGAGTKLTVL

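Variants in AAYL52 differ from the parent at up to three CDR positions; double and triple changes were sampled at random. Affinity was read by AlphaSeq, a pooled yeast mating assay with surface-displayed partners. Mating (16 h, 30 °C) was followed by selection of diploids and sequencing of their barcodes. A regression on co-assayed BCL2-family reference pairs converts the normalised counts of each replicate to an apparent Kd. The assay was run in three technical replicates.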

Positions count from residue 1 of the parent VL; G24Q puts Q in place of G. Numbers give log10(Kd / nM), so 0 is 1 nM and 3 is 1 µM. Smaller is tighter. The mean shown is taken over the replicates in which the pair was detected. A pair that was not seen in that replicate is written "nd"; this usually means weak binding, but a binder can also be missed. In this assay the parent's reference entry averaged 2.31; its copy inside this library read 2.25. As a blank, each scFv also met three strains without target: over library AAYL52, 28% of these pairings were detected, typically at 3.91 and seldom below 2.90. Also given: how often the same scFv was detected with the empty control strains, with their mean in brackets.

changes	log10 Kd (nM) by replicate	mean log10 Kd (nM)	signal with controls
G24Q/D91N/F95P	3.50 / nd / 3.86	3.68	1 of 9 (3.88)
P54W/S55W/V97N	4.91 / nd / 3.49	4.20	4 of 9 (4.21)
Y29T/N33D/F95W	nd / nd / nd	nd	2 of 9 (4.19)
E23L/S88M/F98S	2.39 / 1.78 / 2.14	2.11	2 of 9 (3.64)
R53M/S88A/S89L	nd / 3.62 / nd	3.62	2 of 9 (3.97)
Y29N/N33P	3.23 / nd / nd	3.23	4 of 9 (3.57)
G49H/R53P/S92V	3.57 / nd / nd	3.57	1 of 9 (3.65)
D25L/R28Y/N33W	4.14 / nd / nd	4.14	3 of 9 (3.62)
G24L/N51S/R53D	nd / nd / nd	nd	1 of 9 (3.15)
E23W/K50C/N52R	3.61 / nd / nd	3.61	1 of 9 (4.40)
R53K/R90M/V97G	nd / nd / nd	nd	0 of 9
A32E/D91C/Q96A	5.66 / nd / nd	5.66	4 of 9 (3.87)
R90P/V97K	2.64 / 4.35 / nd	3.49	3 of 9 (4.29)
E23I/Y31C/V97W	2.09 / 3.32 / 2.17	2.53	0 of 9
S89I/S92K/S93R	2.21 / 2.08 / 1.84	2.04	5 of 9 (3.64)
R28V/S92K	3.50 / 3.38 / 4.30	3.73	2 of 9 (3.37)
S55R	2.76 / 2.87 / 2.43	2.69	3 of 9 (3.90)
P54A/R90L/S92L	2.35 / 2.17 / 1.76	2.09	0 of 9
L27G/A32G	2.35 / 2.09 / 1.87	2.11	5 of 9 (3.51)
N51C/N52V/S88C	nd / nd / nd	nd	5 of 9 (4.05)
N52T/D91N/V97G	2.05 / 1.98 / 2.10	2.04	5 of 9 (4.20)
R53H/G94I/V97E	3.89 / 3.49 / 3.54	3.64	1 of 9 (4.48)
S88V/G94S/F98I	nd / nd / nd	nd	1 of 9 (3.99)
G49S/S92Q/F95Y	2.65 / 1.93 / 1.95	2.18	3 of 9 (3.82)
Y31A/N52T/R90T	0.80 / 1.10 / -0.25	0.55	4 of 9 (3.54)
S89E/F98L	4.40 / 3.75 / 3.25	3.80	4 of 9 (4.07)
G24H/Y31R/S88C	2.75 / 2.74 / 2.81	2.77	5 of 9 (3.96)
E23L/R28S/G49D	3.34 / 4.42 / 3.09	3.62	5 of 9 (3.87)
R28D/D91C/V97E	nd / nd / nd	nd	2 of 9 (4.11)
S26Y/S55T	3.19 / 3.48 / 3.78	3.48	4 of 9 (4.00)
N52A/P54A/S88Y	2.74 / 4.27 / 3.46	3.49	3 of 9 (4.10)
L27S/Y30K/F95L	nd / 3.28 / nd	3.28	2 of 9 (3.29)
S26E/N33Y/D91H	nd / 5.23 / nd	5.23	6 of 9 (3.95)
E23D/R53C/Q96I	nd / nd / nd	nd	0 of 9
A32Q/N51D/D91T	nd / nd / nd	nd	0 of 9
L27Q/N33G/G94R	4.64 / 3.74 / 4.73	4.37	5 of 9 (3.98)
D25Y/V97I	2.27 / 2.24 / 2.62	2.38	3 of 9 (3.71)
R28V/N52H/S93P	4.18 / nd / nd	4.18	2 of 9 (3.66)
G49M/S88V/F95P	nd / nd / nd	nd	2 of 9 (4.69)
N33A/N51H	3.19 / 3.63 / 2.34	3.05	3 of 9 (3.60)
S26F/A32M/Q96C	3.33 / 4.00 / 2.27	3.20	2 of 9 (4.05)
Y31K/N52G/S89A	2.14 / 2.07 / 1.82	2.01	4 of 9 (4.18)
P54V/S55T/F95A	2.14 / 2.48 / 2.13	2.25	1 of 9 (3.55)
N33V/R53H/F98E	nd / nd / nd	nd	1 of 9 (3.33)
D25A/N33S/S93N	nd / 3.72 / nd	3.72	0 of 9
R53H/S93G	2.49 / 2.54 / 3.49	2.84	3 of 9 (3.86)

Again, the first 3 entries without any signal:

| changes | log10 Kd (nM) by replicate | mean log10 Kd (nM) | signal with controls |
|---|---|---|---|
| Y29T/N33D/F95W | nd / nd / nd | nd | 2 of 9 (4.19) |
| G24L/N51S/R53D | nd / nd / nd | nd | 1 of 9 (3.15) |
| R53K/R90M/V97G | nd / nd / nd | nd | 0 of 9 |